# Experimental data from patent US20220177841A1, “EX VIVO METHODS FOR PRODUCING A T CELL THERAPEUTIC AND RELATED COMPOSITIONS AND METHODS” (Myst Therapeutics LLC, priority 2019, published 2022).
# Tests used:
# [1] = system: melanoma tumor fragments; experiment: Expansion of tumor-derived cells by IL-2 concentration, melanoma; format: cell-based, human; conditions: 300 IU/mL versus 6000 IU/mL, 14 to 21 days
# Protocol: For expansion from tumor fragments, an individual 1-8 mm tumor fragment, obtained as described in Example 1 from primary tumors of donor patients with CRC or melanoma, was placed in a well of a gas-permeable 24-well culture plate or a 6-well plate, and cultured in either RPMI containing 5% human serum or serum free OpTmizer medium with recombinant IL-2 supplemented at a concentration of 300 IU/mL or 6000 IU/mL. The media also contained gentamicin at 10 μg/ml, and a final concentration of 2.0 mM of a L-alanyl-L-glutamine dipeptide form of glutamine (GlutaMAX Supplement; Thermofisher). The cells were incubated for up to 31 days, such as typically 14 to 21 days, wherein 50% of cellular media was exchanged every other day beginning on the 5th day of culture.
# For all conditions, cell counts were performed approximately every other day using the NC-200 Automated Cell Counter (Chemometec) and samples were collected for fluorescence-activated cell sorting (FACS). After completion of the expansion phase (e.g. day 14-31), cells were washed in PBS then cryopreserved in the presence of a cryoprotectant. Cryopreservation was carried out using CoolCell devices (Corning) or the VIA Freeze (GE Healthcare).
# The effect of different IL-2 concentrations during the expansions from the different tumor types was compared. […]
# [2] = system: SCS obtained from CRC tumor fragments; experiment: Expansion of tumor-derived cells by IL-2 concentration, CRC; format: cell-based, human; conditions: 300 IU/mL versus 6000 IU/mL, 14 to 21 days
# Protocol: Single cell suspensions (SCSs) obtained by homogenization and enzyme digestion of primary tumors from donor patients with CRC or melanoma, as described in Example 1, were cultured in a conventional 6-well plate or a gas-permeable 24-well culture plate. Where possible, multiple conditions from each donor were initiated and averaged (error bars represent ±standard deviation). For 6-well plates, cells were seeded between 250,000 and 1,000,000 cells/mL and for gas-permeable 24-well plates cells were seeded between 5,000 and 750,000 cells/mL. In both cases, the cells were seeded in either RPMI containing 5% human serum or serum free OpTmizer medium with recombinant IL-2 supplemented at a concentration of IL-2 of 300 IU/mL or 6000 IU/mL. The media also contained gentamicin at 10 μg/ml and a final concentration of 2.0 mM of a L-alanyl-L-glutamine dipeptide form of glutamine (GlutaMAX Supplement; Thermofisher). The cells were incubated for up to 31 days, typically 14 to 21 days, wherein 50% of cellular media was exchanged every other day beginning on the 5th day of culture.
# For all conditions, cell counts were performed approximately every other day using the NC-200 Automated Cell Counter (Chemometec) and samples were collected for fluorescence-activated cell sorting (FACS). […]
substance,measurement,setting,value
IL-2: recombinant cytokine that supports T cell recovery and proliferation,"expansion of cells (total cell numbers, fold expansion), high versus low concentration of IL-2",[1],not observed to be necessary for cellular expansion
same,"expansion of cells (total cell numbers, fold expansion), high versus low concentration of IL-2",[2],not observed to be necessary for cellular expansion
